Experimental data from patent publication EP0888303B1, “SYNTHETIC DERIVATIVES OF RAPAMYCIN AS MULTIMERIZING AGENTS FOR CHIMERIC PROTEINS WITH IMMUNOPHILIN-DERIVED DOMAINS” (ARIAD Pharmaceuticals, Inc, priority 1996, dated 1997).

By UniProt entry, the sequences of proteins in these tests, tags left out. Where a name states a change or a piece, a line headed by the entry shows the natural chain unless it says otherwise. Residues count along the entry.
UniProt P62942, whole entry, looked up, stated change not applied: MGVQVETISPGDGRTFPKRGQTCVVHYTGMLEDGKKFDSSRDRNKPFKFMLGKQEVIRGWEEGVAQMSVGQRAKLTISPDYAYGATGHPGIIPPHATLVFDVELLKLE
UniProt P62942, 2-108 F37L limits assumed: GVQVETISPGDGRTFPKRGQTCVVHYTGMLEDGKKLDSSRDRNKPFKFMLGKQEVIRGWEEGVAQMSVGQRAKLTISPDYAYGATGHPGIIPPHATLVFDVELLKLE
UniProt P62942, 2-108 limits assumed: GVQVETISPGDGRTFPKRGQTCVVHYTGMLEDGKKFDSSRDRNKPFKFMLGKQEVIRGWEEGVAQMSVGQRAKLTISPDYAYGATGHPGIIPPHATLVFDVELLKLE

What was measured:
Test in all cases: Competitive Binding FP Assay
[1] = target: F36L mutant FKBP (Homo sapiens, UniProt P62942, F37L)
[2] = target: wild-type human FKBP12 (Homo sapiens, UniProt P62942)
[3] = target: F36A mutant FKBP (UniProt P62942); design: species or system human; conditions: read-out: F36A IC50; Synthetic Monomers table; normalized to value of FK506 run in the same experiment
[4] = target: mutant (F36V) FKBP (UniProt P62942); design: species or system human
[5] = target: F36M mutant FKBP (UniProt P62942); design: species or system human; conditions: read-out: F36M IC50; Synthetic Monomers table; normalized to value of FK506 run in the same experiment
[6] = target: F36I mutant FKBP (UniProt P62942); design: species or system human; conditions: read-out: F36I IC50; Synthetic Monomers table; normalized to value of FK506 run in the same experiment
[7] = read-out: F36L IC50, Synthetic Monomers table, normalized to value of FK506 run in the same experiment
[8] = read-out: wild-type IC50, Synthetic Monomers table, normalized to value of FK506 run in the same experiment
[9] = read-out: F36V IC50, Synthetic Monomers table, normalized to value of FK506 run in the same experiment
[10] = read-out: FKBPF36L binding affinity IC50
[11] = read-out: FKBPF36V binding affinity IC50, Synthetic Multimerizers table, monomer value in brackets, mean of duplicates, normalized to FK506 = […] (substituted phenyl/lower aliphatic series: to AP1903 values)
[12] = read-out: FKBPwt binding affinity IC50

COc1ccc(CC[C@@H](OC(=O)[C@@H]2CCCCN2C(=O)C(C)(C)C)c2cccc(OCC(=O)O)c2)cc1OC
IC50 [1, 7]: 426 nM | IC50 [2, 8]: 13500 nM | IC50 [3]: 2700 nM | IC50 [4, 9]: 390 nM | IC50 [5]: 2280 nM | IC50 [6]: 947 nM

COc1ccc(CC[C@@H](OC(=O)[C@@H]2CCCCN2C(=O)c2sccc2C)c2cccc(OCC(=O)O)c2)cc1OC
IC50 [1, 7]: 1630 nM | IC50 [2, 8]: > 100000 nM | IC50 [3]: 5720 nM | IC50 [4, 9]: 2990 nM | IC50 [5]: 5930 nM | IC50 [6]: 5470 nM

CCC(C(=O)N1CCCC[C@H]1C(=O)O[C@H](CCc1ccc(OC)c(OC)c1)c1cccc(OCC(=O)O)c1)c1cccs1 (stereo partly drawn)
IC50 [1, 7]: 121 nM | IC50 [2, 8]: > 10000 nM | IC50 [3]: 156 nM | IC50 [4, 9]: 62 nM | IC50 [5]: 182 nM | IC50 [6]: 135 nM

CCC(C(=O)N1CCCC[C@H]1C(=O)O[C@H](CCc1ccc(OC)c(OC)c1)c1cccc(OCC(=O)O)c1)c1ccc(OC)cc1 (stereo partly drawn)
IC50 [1, 7]: 69 nM | IC50 [2, 8]: 150000 nM | IC50 [3]: 130 nM | IC50 [4, 9]: 42 nM | IC50 [5]: 154 nM | IC50 [6]: 91 nM

COc1ccc(CC[C@@H](OC(=O)[C@@H]2CCCCN2C(=O)[C@H](CC2CC2)c2cc(OC)c(OC)c(OC)c2)c2cccc(OCC(=O)O)c2)cc1OC
IC50 [1, 7]: 400 nM

CC[C@H](C(=O)N1CCCC[C@H]1C(=O)O[C@H](CCc1ccc(OC)c(OC)c1)c1cccc(OCC(=O)NCC(O)CNC(=O)COc2cccc([C@@H](CCc3ccc(OC)c(OC)c3)OC(=O)[C@@H]3CCCCN3C(=O)[C@@H](CC)c3cc(OC)c(OC)c(OC)c3)c2)c1)c1cc(OC)c(OC)c(OC)c1
IC50 [1, 10]: 11 nM | IC50 [4, 11]: 4.3 nM

CCC(CC)NC(=O)N1CCCC[C@H]1C(=O)O[C@H](CCc1ccc(OC)c(OC)c1)c1cccc(OCC(=O)O)c1
IC50 [1, 7]: 45 nM | IC50 [1, 10]: 45 nM | IC50 [2, 12]: 14000 nM | IC50 [2, 8]: 14000 nM | IC50 [3]: 107 nM | IC50 [5]: 66 nM | IC50 [6]: 138 nM

CC[C@H](C(=O)N1CCCC[C@H]1C(=O)O[C@H](CCc1ccc(OC)c(OC)c1)c1cccc(OCC(=O)O)c1)c1ccccc1
IC50 [1, 7]: 51 nM | IC50 [2, 12]: > 100000 nM | IC50 [2, 8]: 57000 nM | IC50 [3]: 66 nM | IC50 [4, 11]: 22.2 nM | IC50 [5]: 123 nM | IC50 [6]: 93 nM

CCCC(CCC)C(=O)N1CCCC[C@H]1C(=O)O[C@H](CCc1ccc(OC)c(OC)c1)c1cccc(OCC(=O)O)c1
IC50 [1, 7]: 269 nM | IC50 [2, 8]: > 100000 nM | IC50 [3]: 207 nM | IC50 [4, 9]: 77 nM | IC50 [5]: 362 nM | IC50 [6]: 307 nM

COc1ccc(CC[C@@H](OC(=O)[C@@H]2CCCCN2C(=O)C(=O)c2ccccc2)c2cccc(OCC(=O)O)c2)cc1OC
IC50 [1, 7]: 375 nM | IC50 [2, 8]: 1420 nM | IC50 [3]: 13600 nM | IC50 [4, 9]: 390 nM | IC50 [5]: 623 nM | IC50 [6]: 3920 nM

COc1ccc(CC[C@@H](OC(=O)[C@@H]2CCCCN2C(=O)N[C@H](C)c2ccccc2)c2cccc(OCC(=O)O)c2)cc1OC
IC50 [1, 7]: 126 nM | IC50 [2, 8]: 4200 nM | IC50 [3]: 406 nM | IC50 [4, 9]: 381 nM | IC50 [5]: 218 nM | IC50 [6]: 368 nM

COc1ccc(CC[C@@H](OC(=O)[C@@H]2CCCCN2C(=O)[C@@H](CC2CC2)c2cc(OC)c(OC)c(OC)c2)c2cccc(OCC(=O)O)c2)cc1OC
IC50 [1, 7]: 14 nM | IC50 [2, 8]: 8440 nM

CCC(C(=O)N1CCCC[C@H]1C(=O)O[C@H](CCc1ccc(OC)c(OC)c1)c1cccc(OCC(=O)O)c1)c1ccccc1OC (stereo partly drawn)
IC50 [1, 7]: 211 nM | IC50 [2, 8]: 45800 nM | IC50 [3]: 586 nM | IC50 [4, 9]: 93 nM | IC50 [5]: 425 nM | IC50 [6]: 153 nM

CCC(C(=O)N1CCCC[C@H]1C(=O)O[C@H](CCc1ccc(OC)c(OC)c1)c1cccc(OCC(=O)O)c1)c1cc(OC)c(OC)c(OC)c1 (stereo partly drawn)
IC50 [1, 7]: 7.3 nM | IC50 [2, 8]: 4760 nM | IC50 [3]: 34 nM | IC50 [4, 9]: 7 nM | IC50 [4, 11]: 4.8 nM | IC50 [5]: 29 nM | IC50 [6]: 9.9 nM

C=CC[C@H](C(=O)N1CCCC[C@H]1C(=O)O[C@H](CCc1ccc(OC)c(OC)c1)c1cccc(OCC(=O)O)c1)c1cc(OC)c(OC)c(OC)c1
IC50 [1, 7]: 4.7 nM | IC50 [2, 12]: 3670 nM | IC50 [2, 8]: 3670 nM | IC50 [3]: 8.1 nM | IC50 [4, 9]: 1.53 nM | IC50 [4, 11]: 1.53 nM | IC50 [5]: 3.7 nM | IC50 [6]: 3 nM

CCC[C@H](C(=O)N1CCCC[C@H]1C(=O)O[C@H](CCc1ccc(OC)c(OC)c1)c1cccc(OCC(=O)O)c1)c1cc(OC)c(OC)c(OC)c1
IC50 [1, 7]: 7.2 nM | IC50 [2, 8]: 5060 nM | IC50 [3]: 9.2 nM | IC50 [6]: 5.6 nM

COc1ccc(CC[C@@H](OC(=O)[C@@H]2CCCCN2C(=O)[C@@H](c2cc(OC)c(OC)c(OC)c2)C(C)C)c2cccc(OCC(=O)O)c2)cc1OC
IC50 [1, 7]: 74 nM | IC50 [2, 8]: > 100000 nM | IC50 [3]: 119 nM | IC50 [5]: 46 nM | IC50 [6]: 106 nM

CCC(C(=O)N1CCCC[C@H]1C(=O)O[C@H](CCc1ccc(OC)c(OC)c1)c1cccc(OCC(=O)O)c1)c1cccc(OC)c1 (stereo partly drawn)
IC50 [1, 7]: 70 nM | IC50 [2, 8]: 115000 nM | IC50 [3]: 105 nM | IC50 [4, 9]: 37 nM | IC50 [5]: 119 nM | IC50 [6]: 44 nM

COc1ccc(CC[C@@H](OC(=O)[C@@H]2CCCCN2C(=O)N[C@@H](C)c2ccccc2)c2cccc(OCC(=O)O)c2)cc1OC
IC50 [1, 7]: 670 nM | IC50 [2, 8]: 73500 nM | IC50 [3]: 94 nM | IC50 [4, 9]: 450 nM | IC50 [5]: 176 nM | IC50 [6]: 1160 nM

COc1ccc(CC[C@@H](OC(=O)[C@@H]2CCCCN2C(=O)C(=O)c2cc(OC)c(OC)c(OC)c2)c2cccc(OCC(=O)O)c2)cc1OC
IC50 [1, 7]: 143 nM | IC50 [3]: 1370 nM | IC50 [4, 9]: 107 nM | IC50 [5]: 131 nM | IC50 [6]: 105 nM

CC[C@H](C(=O)N1CCCC[C@H]1C(=O)O[C@H](C)c1cccc(OCC(=O)O)c1)c1ccccc1
IC50 [1, 7]: 7470 nM | IC50 [2, 8]: > 100000 nM | IC50 [3]: 4840 nM | IC50 [4, 9]: 4280 nM | IC50 [5]: 21100 nM | IC50 [6]: 7550 nM

CC[C@H](C(=O)N1CCCC[C@H]1C(=O)O[C@H](CCc1ccc(OC)c(OC)c1)c1cccc(OCC(=O)O)c1)c1ccc(Cl)cc1
IC50 [1, 7]: 56 nM | IC50 [2, 8]: 17600 nM | IC50 [3]: 81 nM | IC50 [4, 9]: 34 nM | IC50 [5]: 62 nM | IC50 [6]: 54 nM

CCC(CC)NC(=O)N1CCCC[C@H]1C(=O)O[C@H](CCN1CCOCC1)c1cccc(OCC(=O)O)c1
IC50 [1, 7]: 1520 nM | IC50 [1, 10]: 1520 nM | IC50 [3]: 3530 nM | IC50 [4, 9]: 1760 nM | IC50 [4, 11]: 1760 nM | IC50 [5]: 1240 nM | IC50 [6]: 3410 nM

CC[C@@H](C(=O)N1CCCC[C@H]1C(=O)O[C@H](CCc1ccc(OC)c(OC)c1)c1cccc(OCC(=O)O)c1)c1cc(OC)c(OC)c(OC)c1
IC50 [1, 7]: 212 nM | IC50 [2, 8]: > 100000 nM | IC50 [3]: 431 nM | IC50 [5]: 424 nM

CC[C@H](C(=O)N1CCCC[C@H]1C(=O)O[C@H](CCc1cccnc1)c1cccc(OCC(=O)O)c1)c1cc(OC)c(OC)c(OC)c1
IC50 ([1]; read-out: F36L IC50, tested form: HCl): 32 nM

CCC[C@@H](C(=O)N1CCCC[C@H]1C(=O)O[C@H](CCc1ccc(OC)c(OC)c1)c1cccc(OCC(=O)O)c1)c1cc(OC)c(OC)c(OC)c1
IC50 [1, 7]: 146 nM | IC50 [3]: 84 nM | IC50 [5]: 73 nM | IC50 [6]: 76 nM

C=CC[C@@H](C(=O)N1CCCC[C@H]1C(=O)O[C@H](CCc1ccc(OC)c(OC)c1)c1cccc(OCC(=O)O)c1)c1cc(OC)c(OC)c(OC)c1
IC50 [1, 7]: 57 nM | IC50 [3]: 57 nM | IC50 [5]: 42 nM | IC50 [6]: 24 nM

COc1ccc(CC[C@@H](OC(=O)[C@@H]2CCCCN2C(=O)[C@H](c2cc(OC)c(OC)c(OC)c2)C(C)C)c2cccc(OCC(=O)O)c2)cc1OC
IC50 [1, 7]: 6.1 nM | IC50 [1, 10]: 6.1 nM | IC50 [2, 12]: 4890 nM | IC50 [2, 8]: 4890 nM | IC50 [3]: 16 nM | IC50 [5]: 10 nM | IC50 [6]: 10 nM

Like-named read-outs stand apart in the source and are kept apart here.
